Biological target: human mGluR5a receptor (Homo sapiens, UniProt P41594)
Assay: Cell-based functional Ca2+ mobilization assay (FDSS), potentiation of glutamate EC20 response
Conditions: for EC50 / pEC50: HEK cells transfected with human mGluR5 (H10H or H12H), in presence of EC20 glutamate; for Emax (%): maximum % effect in concentration-response curve, as percent of response to maximally effective glutamate

By UniProt entry, the sequences of proteins in these tests, tags left out. Residues count along the entry.
UniProt P41594, 21-1180 isoform 2 limits assumed: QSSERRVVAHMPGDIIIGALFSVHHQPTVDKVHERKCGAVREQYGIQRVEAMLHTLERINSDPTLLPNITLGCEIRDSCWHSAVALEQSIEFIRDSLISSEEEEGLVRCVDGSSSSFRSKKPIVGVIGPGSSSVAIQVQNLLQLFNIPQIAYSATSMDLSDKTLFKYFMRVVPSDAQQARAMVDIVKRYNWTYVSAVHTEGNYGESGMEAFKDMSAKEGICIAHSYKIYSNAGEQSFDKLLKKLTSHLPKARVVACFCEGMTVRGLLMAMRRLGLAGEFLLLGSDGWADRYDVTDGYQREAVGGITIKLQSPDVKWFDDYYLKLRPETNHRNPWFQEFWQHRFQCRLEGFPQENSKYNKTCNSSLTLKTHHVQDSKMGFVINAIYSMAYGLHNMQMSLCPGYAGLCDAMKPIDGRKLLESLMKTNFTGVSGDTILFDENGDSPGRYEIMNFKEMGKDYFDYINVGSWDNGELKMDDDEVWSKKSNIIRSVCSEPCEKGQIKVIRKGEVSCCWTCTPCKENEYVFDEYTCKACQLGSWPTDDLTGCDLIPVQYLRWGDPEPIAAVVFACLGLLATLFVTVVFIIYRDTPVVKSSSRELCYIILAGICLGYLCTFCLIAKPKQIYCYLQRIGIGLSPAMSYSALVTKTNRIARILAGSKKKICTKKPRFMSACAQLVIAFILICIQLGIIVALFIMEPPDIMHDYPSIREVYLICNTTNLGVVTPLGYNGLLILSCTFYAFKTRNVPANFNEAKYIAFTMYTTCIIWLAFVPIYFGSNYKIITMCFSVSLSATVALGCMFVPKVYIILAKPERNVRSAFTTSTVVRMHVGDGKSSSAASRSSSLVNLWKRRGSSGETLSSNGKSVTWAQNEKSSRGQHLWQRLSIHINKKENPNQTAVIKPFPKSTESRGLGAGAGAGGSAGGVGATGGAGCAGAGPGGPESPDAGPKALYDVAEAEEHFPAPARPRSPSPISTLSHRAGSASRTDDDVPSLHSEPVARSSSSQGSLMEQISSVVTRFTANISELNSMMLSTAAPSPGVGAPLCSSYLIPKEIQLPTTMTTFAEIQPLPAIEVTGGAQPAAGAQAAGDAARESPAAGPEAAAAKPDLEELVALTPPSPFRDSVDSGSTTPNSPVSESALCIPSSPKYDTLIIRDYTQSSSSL

EC50 | pEC50 | Emax (%) | Structure (SMILES)
0.479 µM | 6.32 | 72% | COc1cncc(N2C(=O)c3cc(COc4ccccc4)nn3C[C@H]2C)n1
0.36 µM | 6.44 | 69% | Cc1ncc(N2CCn3nc(COc4ccccc4)cc3C2=O)nc1C
0.093 µM | 7.03 | 62% | CC1CN(c2ccc(F)cc2)C(=O)c2cc(COc3ccccc3)nn21 (single isomer, unassigned) [Example 130]
0.257 µM | 6.59 | 43% | CC1CN(c2ccc(F)cn2)C(=O)c2cc(COc3ccccc3)nn21 (single isomer, unassigned) [Example 132]

From US8592422B2, “Bicyclic triazole and pyrazole lactams as allosteric modulators of mGluR5 receptors” (Vanderbilt University, priority 2010, dated 2013)
